By UniProt entry, the sequences of proteins in these tests, tags left out. Residues count along the entry.
UniProt G1T1Q0, 1-443: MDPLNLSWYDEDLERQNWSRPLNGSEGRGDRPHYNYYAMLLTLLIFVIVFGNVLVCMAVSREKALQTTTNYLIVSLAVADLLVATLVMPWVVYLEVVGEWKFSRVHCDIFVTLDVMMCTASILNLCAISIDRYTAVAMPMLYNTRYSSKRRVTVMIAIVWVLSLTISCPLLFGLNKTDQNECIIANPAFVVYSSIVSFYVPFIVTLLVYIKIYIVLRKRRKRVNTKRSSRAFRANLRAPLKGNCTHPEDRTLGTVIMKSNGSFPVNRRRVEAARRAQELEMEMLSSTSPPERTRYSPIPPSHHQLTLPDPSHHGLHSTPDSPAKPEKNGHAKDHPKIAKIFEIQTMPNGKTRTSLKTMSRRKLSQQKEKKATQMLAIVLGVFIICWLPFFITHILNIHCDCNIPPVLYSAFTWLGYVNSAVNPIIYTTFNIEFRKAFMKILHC

In patent publication US4414224A (SmithKline Beckman Corporation, priority 1982, dated 1983):

Molecular target: prejunctional dopamine receptors (Oryctolagus cuniculus, UniProt G1T1Q0)
Assay: cell-based
Source text: The isolated perfused rabbit ear artery preparation described by J. P. Hiebel and R. G. Pendleton, Arch.

Structure (SMILES) | EC50 | inhibitory effect of the compound in presence of 1-sulpiride (1-sulpiride, selective dopamine antagonist) | Kb | Kb (receptor dissociation constant (KB) as a blocker of dopamine-induced inhibition, agonist: dopamine)
CCCN(CCC)CCc1ccc(O)c2c1CC(=O)N2 [4-(2-di-n-propylaminoethyl)-7-hydroxy-2(3H)-indolone] | 1.8 ± 0.3 nM | blocked by 1-sulpiride |  | 
CCN1CCC[C@H]1CNC(=O)c1cc(S(N)(=O)=O)ccc1OC [Compound 1-sulpiride, 1-sulpiride, reference compound] |  |  | 8.8 nM | 32 nM

Where two headings read alike, the source gives them in different places.
